The text below walks through data of article PMC10407959 (Journal of medicinal chemistry, 2023).

Usually IC50 stands for the midpoint of a concentration-inhibition curve.

Structures are written as SMILES. Where “and” joins values, the source holds several entries; their conditions need not be identical. Equal entries are not always repeated.

One data set concerns the target T1, mP2Y14R (Mus musculus, UniProt Q9ESG6).
T1 sequence (Q9ESG6 1-338): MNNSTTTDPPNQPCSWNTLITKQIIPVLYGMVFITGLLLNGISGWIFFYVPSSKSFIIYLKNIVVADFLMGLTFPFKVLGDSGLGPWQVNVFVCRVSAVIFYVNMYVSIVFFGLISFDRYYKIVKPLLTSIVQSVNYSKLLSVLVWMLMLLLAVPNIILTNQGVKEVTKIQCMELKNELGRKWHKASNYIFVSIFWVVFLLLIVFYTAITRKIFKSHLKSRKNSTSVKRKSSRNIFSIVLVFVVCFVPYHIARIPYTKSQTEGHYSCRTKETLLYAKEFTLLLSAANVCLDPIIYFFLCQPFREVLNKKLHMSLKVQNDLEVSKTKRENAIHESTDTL
Kind of data set: whole-cell fluorescent binding assay at mP2Y14R expressed in HEK-293 cells. To be noted: mP2Y14R vs hP2Y14R.

Data set [1] concerns hepG2 (human hepatoma) cell. To be noted: read-out: hepG2 (human hepatoma) cell toxicity, IC50; ref Wen et al. 5; cited from earlier work.

On to `O=C(O)c1cc(-c2ccc([C@H]3C[C@H]4C[C@@H]3CN4)cc2)c2ccc(-c3ccc(C(F)(F)F)cc3)cc2c1` [2b, 4-(4-((1S,4S,5S)-2-Azabicyclo[2.2.1]heptan-5-yl)phenyl)-7-(4-(trifluoromethyl)phenyl)-2-naphthoic Acid], for which the “IC50 ratio (mouse/human)” value on mP2Y14R is 11 and 10.9. The IC50 in data set [1] was 11 µM.
